Experimental data published in ChEMBL document CHEMBL3616463, “Differential influence of 7 cations on 16 non-competitive NMDA receptor blockers” (Bioorg Med Chem Lett, 2015).

Molecular target: Glutamate NMDA receptor
Assay type: cell membranes, Rattus norvegicus, Wistar, Brain, Membrane

SMILES: CC12CC3CC(C)(C1)CC(N)(C3)C2 [MEMANTINE]
- IC50: 1090 nM
